# The source made the active and inactive calls. The calls are words filed in the database; no cut-off is given here.
# The chains behind the UniProt entries cited, without tags or fusion partners.
# UniProt O43526, whole entry: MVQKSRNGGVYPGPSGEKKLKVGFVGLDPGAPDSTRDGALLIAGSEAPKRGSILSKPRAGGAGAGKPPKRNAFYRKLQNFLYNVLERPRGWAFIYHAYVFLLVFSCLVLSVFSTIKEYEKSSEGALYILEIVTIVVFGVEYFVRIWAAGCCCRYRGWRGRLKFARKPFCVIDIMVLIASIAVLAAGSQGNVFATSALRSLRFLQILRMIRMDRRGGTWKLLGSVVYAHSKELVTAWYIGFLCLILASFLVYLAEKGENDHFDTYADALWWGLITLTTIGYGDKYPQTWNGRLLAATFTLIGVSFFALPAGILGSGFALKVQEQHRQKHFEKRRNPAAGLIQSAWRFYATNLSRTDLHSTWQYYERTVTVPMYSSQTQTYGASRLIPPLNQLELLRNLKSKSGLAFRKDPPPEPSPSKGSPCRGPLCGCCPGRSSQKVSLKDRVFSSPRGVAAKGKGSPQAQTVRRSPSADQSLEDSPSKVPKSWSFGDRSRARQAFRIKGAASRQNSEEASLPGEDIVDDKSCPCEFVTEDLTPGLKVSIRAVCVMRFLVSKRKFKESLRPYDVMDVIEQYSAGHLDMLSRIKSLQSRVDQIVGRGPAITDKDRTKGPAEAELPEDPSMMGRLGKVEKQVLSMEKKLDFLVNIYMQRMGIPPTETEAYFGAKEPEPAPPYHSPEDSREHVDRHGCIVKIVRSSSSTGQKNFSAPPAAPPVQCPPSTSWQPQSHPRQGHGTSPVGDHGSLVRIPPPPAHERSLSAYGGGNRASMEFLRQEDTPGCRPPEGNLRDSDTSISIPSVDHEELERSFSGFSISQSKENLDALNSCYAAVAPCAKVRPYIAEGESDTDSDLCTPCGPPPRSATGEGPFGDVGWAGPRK
# Key:
# [1] = target: Potassium voltage-gated channel subfamily KQT member 2 (Homo sapiens) (UniProt O43526); assay: Inhibition of human Kv7.2 transiently transfected in CHO cells at 10 uM at -100 mV holding potential by whole-cell patch clamp electrophysiology method; assay type: cell-based
# [2] = target: Potassium voltage-gated channel subfamily KQT member 2 (Homo sapiens) (UniProt O43526); assay: Activation of human Kv7.2 transiently transfected in CHO cells at 10 uM under -100 mV holding potential by whole-cell patch clamp electrophysiology method; assay type: cell-based
SMILES,inhibition [1],Activity [2]
CCOC(=O)[C@@H]1CS[C@@]2(C(=O)Nc3ccc(Br)cc32)N1C(=O)c1ccc(Cl)cc1,Active,–
O=S(=O)(Nc1ccc2c(c1)CCN2Cc1ccc(C(F)(F)F)cc1C(F)(F)F)C1CCCCC1,–,10%
O=C(NCc1ccccc1)[C@H](Cc1c[nH]c2ccccc12)NCc1ccc(Oc2ccccc2)cc1,Active,–

# Reference: ChEMBL document CHEMBL5512679, “In Silico Assisted Identification, Synthesis, and In Vitro Pharmacological Characterization of Potent and Selective Blockers of the Epilepsy-Associated KCNT1 Channel” (J Med Chem, 2024)
